The results in this text go back to US20200375975A1, “Treatment of Renal Cell Carcinoma with Lenvatinib and Everolimus” (Eisai R&D Management Co., Ltd., priority 2016, published 2020).

The test system of this data set is patients with unresectable advanced or metastatic renal cell carcinoma (RCC). Nature of the data set: Same Phase 2 trial: adverse reactions (CTCAE grades), once daily dosing.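 Also: adverse events are any unwanted sign, symptom, abnormal lab finding or disease occurring in time with treatment, whether or not drug-related, and CTCAE grade expresses their severity.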 Particulars: combo 18 mg+5 mg; LENVIMA 24 mg; everolimus 10 mg.

On to `COc1cc2nccc(Oc3ccc(NC(=O)NC4CC4)c(Cl)c3)c2cc1C(N)=O` [LENVIMA ®, 4-[3-chloro-4-(N′-cyclopropylureido)phenoxy]-7-methoxyquinoline-6-carboxamide methanesulfonate], for which the “Dental and oral infections, All Grades” value is reported as 6%; the “Dental and oral infections, Grades 3-4” value stood at 2%; the “Fatigue, Grades 3-4” value worked out at 10%; the “Headache, All Grades” value is on record as 27%. For the same compound, the “Peripheral edema, Grades 3-4” value is on record as 0% and the “Pyrexia, Grades 3-4” value was 0%.
With `CO[C@H]1C[C@@H]2CC[C@@H](C)[C@@](O)(O2)C(=O)C(=O)N2CCCC[C@H]2C(=O)O[C@H]([C@H](C)C[C@@H]2CC[C@@H](OCCO)[C@H](OC)C2)CC(=O)[C@H](C)/C=C(\C)[C@@H](O)[C@@H](OC)C(=O)[C@H](C)C[C@H](C)/C=C/C=C/C=C/1C` [Everolimus, (1R,9S,12S,15R,16E,18R,19R,21R,23 S,24E,26E,28E,30S,32S,35R)-1,18-dihydroxy-12-{(1R)-2-[(1 S,3R,4R)-4-(2-hydroxyethoxy)-3-methoxycyclohexyl]-1-methylethyl}-19,30-dimethoxy-15,17,21,23,29,35-hexamethyl-11,36-dioxa-4-aza-tricyclo[30.3.1.0^4,9]hexatriaconta-16,24,26,28-tetraene-2,3,10,14,20-pentaone], the “Dental and oral infections, All Grades” value was 0%; the “Dental and oral infections, Grades 3-4” value was found to be 0%; the “Fatigue, Grades 3-4” value was 2%; the “Headache, All Grades” value was 10%. Further, the “Peripheral edema, Grades 3-4” value is given as 0% and the “Pyrexia, Grades 3-4” value was determined as 2%.
